Measurements as given in publication PMC8333062, “Chemical tools for epichaperome-mediated interactome dysfunctions of the central nervous system” (Nature Communications, 2021).
“And” between values parts separate entries of the source, which are not always exact repeats. Equal values may be shown once.

Assays:
[1] = tested on: tumor endothelial cells in GBM explants; assay: Active caspase-3 in CD105+ve cells of explants; conditions: 1 µM, explants #30; listed as PU-HZ151
[2] = [131I]-labeled agents, radioactivity in plasma and brain; format: in vivo, mouse; set-up: unit not given beside the values; conditions: radioactivity %ID g-1

Question: Which “%Increase Active Caspase-3 (CD105+ve cells)” value [1] does the source give for `CC(C)(C)CNCCn1c(Sc2cc3c(cc2I)OCO3)nc2c(N)ncnc21` [Compound 85] here?
Answer: Its value is 428% and 256% and 246%.

Question: And the “AUCbrain PU-HZ151 : PU-H71” value [2]?
Answer: The value was 12.9.
